Values of other authors, collected in patent publication US20230204599A1, “TRIAGING METHOD USING CELL FREE NUCLEOSOME LEVELS” (Belgian Volition SRL (BE/BE), priority 2020, published 2023).

Tested on: neutrophil cells
Conditions: cited from earlier work

C[C@@H](CN1CC(=O)NC(=O)C1)N1CC(=O)NC(=O)C1 [dexrazoxane]
effect on NETosis: does not affect NETosis
